Consider one molecule from patent US6409648 (University of California, dated 2002).

The test has as its target T1, HA-Trf1 (Trf1 with a 10 aa hemagglutinin epitope at the N-terminus) (human, UniProt P54274 1-439).
T1 construct: In vitro translated (major 60 kD and minor about 40 kD products), or expressed in HT1080 cells
T1 sequence (looked up): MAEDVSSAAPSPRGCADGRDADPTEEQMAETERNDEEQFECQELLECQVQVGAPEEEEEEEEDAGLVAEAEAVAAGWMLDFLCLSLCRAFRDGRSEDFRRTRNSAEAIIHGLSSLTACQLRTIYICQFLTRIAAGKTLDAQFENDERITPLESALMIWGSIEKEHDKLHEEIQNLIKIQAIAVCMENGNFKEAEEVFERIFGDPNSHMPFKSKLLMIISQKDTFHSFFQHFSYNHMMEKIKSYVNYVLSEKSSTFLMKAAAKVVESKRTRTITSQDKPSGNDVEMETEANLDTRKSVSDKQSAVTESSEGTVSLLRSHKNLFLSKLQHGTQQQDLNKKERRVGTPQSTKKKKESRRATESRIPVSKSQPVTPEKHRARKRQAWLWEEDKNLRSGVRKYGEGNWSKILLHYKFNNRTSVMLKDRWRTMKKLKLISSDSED
Put plainly: co-immunoprecipitation with anti-GST of in vitro translated radiolabeled protein, SDS-PAGE.

B1: GST (glutathione-S-transferase) (other)
chain: MSPILGYWKIKGLVQPTRLLLEYLEEKYEEHLYERDEGDKWRNKKFELGLEFPNLPYYIDGDVKLTQSMAIIRYIADKHNMLGGCPKERAEISMLEGAVLDIRYGVSRIAYSKDFETLKVDFLSKLPEMLKMFEDRLCHKTYLNGDHVTHPDFMLYDALDVVLYMDPMCLDAFPKLVCFKKRIEAIPQIDKYLKSSKYIAWPLQGWQATFGGGDHPPK
notes: Control for the GST fusion proteins
For the molecule B1, the binding result is listed as “no binding”.
